Reference: patent US20070219159A1, “CYCLODEXTRIN COMPOSITIONS AND METHODS OF TREATING VIRAL INFECTIONS” (priority 2002, published 2007)

Columns and labels:
HSV-1 = conditions: in general 1000-fold less drug than Examples 1-6 and 10
HSV-2 = conditions: in general 1000-fold less drug than Examples 1-6 and 10

Row | Structure (SMILES) | SI = CC50/EC50 (Flu A) | SI = CC50/EC50 (Measles) | SI = CC50/EC50 (Punta Toro) | SI = CC50/EC50 (Ad) | SI = CC50/EC50 (Flu B) | SI = CC50/EC50 (Pichinde) | SI = CC50/EC50 (HSV-1) | SI = CC50/EC50 (RSV) | SI = CC50/EC50 (MCMV) | SI = CC50/EC50 (HHV-7) | SI = CC50/EC50 (HSV-2) | SI = CC50/EC50 (Rhino) | SI = CC50/EC50 (VZV) | SI = CC50/EC50 (HRV) | SI = CC50/EC50 (Resp syncytial) | SI = CC50/EC50 (PIV) | SI = CC50/EC50 (HCMV) | SI = CC50/EC50 (EBV) | SI = CC50/EC50 (HHV-6)
1 | OC[C@H]1O[C@@H]2O[C@H]3[C@H](O)[C@@H](O)[C@@H](O[C@H]4[C@H](O)[C@@H](O)[C@@H](O[C@H]5[C@H](O)[C@@H](O)[C@@H](O[C@H]6[C@H](O)[C@@H](O)[C@@H](O[C@H]7[C@H](O)[C@@H](O)[C@@H](O[C@H]8[C@H](O)[C@@H](O)[C@@H](O[C@H]1[C@H](O)[C@H]2O)O[C@@H]8CO)O[C@@H]7CO)O[C@@H]6CO)O[C@@H]5CO)O[C@@H]4CO)O[C@@H]3CO [BCD, β-cyclodextrin] | 0 | 0 | 0 | 0 | 0 | 0 | 0 | 0 | 0 | 0 | 0 | 0 | 0 | 0 | 0 | 0 | 0 | 0 | 0
2 | CC(O)COC[C@H]1O[C@@H]2O[C@H]3[C@H](O)[C@@H](O)[C@@H](O[C@H]4[C@H](O)[C@@H](O)[C@@H](O[C@H]5[C@H](O)[C@@H](O)[C@@H](O[C@H]6[C@H](O)[C@@H](O)[C@@H](O[C@H]7[C@H](O)[C@@H](O)[C@@H](O[C@H]8[C@H](O)[C@@H](O)[C@@H](O[C@H]1[C@H](O)[C@H]2O)O[C@@H]8COCC(C)O)O[C@@H]7COCC(C)O)O[C@@H]6COCC(C)O)O[C@@H]5COCC(C)O)O[C@@H]4COCC(C)O)O[C@@H]3COCC(C)O (stereo partly drawn) [HPBCD, hydroxypropyl β-cyclodextrin] | – | – | – | – | – | – | – | – | – | – | – | – | – | – | – | – | – | > 625 | –
